In PubChem BioAssay AID602429 (Sanford-Burnham Center for Chemical Genomics, 2012):
The list shows a part of the results, in another mix than the full data. Some salts and complexes are drawn in separate pieces, as the source files them; their charges need not balance. The source made the active and inactive calls. Rule as the data show it: active = inhibition above about 37%; inactive = the rest.

Sequences of proteins named here, by UniProt entry; tags and fusion partners are left off.
UniProt P63165, whole entry: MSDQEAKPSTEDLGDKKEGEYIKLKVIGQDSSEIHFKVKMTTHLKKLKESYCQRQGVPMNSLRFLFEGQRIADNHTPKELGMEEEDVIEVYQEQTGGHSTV

What follows are molecules tested against Small ubiquitin-related modifier 1 (Homo sapiens) (UniProt P63165) (assay: SUMO1 binding to interaction partners, disruption – biochemical, uHTS, primary screen (AID 602429)). Conditions: SUMO1 binding to a labelled peptide, TR-FRET, 1 h; at 20 µM; hits give high values.

SMILES | inhibition
O=C1C(O)=C([N+](=O)[O-])C(=O)C(O)=C1[N+](=O)[O-] | inactive: 12.4%
Cc1cc(C)cc(OP(C)(=O)Nc2cccc(C(F)(F)F)c2)c1 (centres undefined) | inactive: 1.37%
COc1ccccc1OP(C)(=O)Nc1ccc(C)c(C)c1 (centres undefined) | inactive: 3.64%
COc1ccc(OP(C)(=O)Nc2ccccc2Br)cc1 (centres undefined) | inactive: -2.63%
CP(=O)(Nc1ccc(Cl)cc1Cl)Oc1ccccc1 (centres undefined) | inactive: 2.2%
CCCCCCCCCCCCCCCC1C[N+](C)(C)CCOP(C)(=O)O1 (centres undefined) | inactive: -185%
CP(=O)(OCCOc1ccccc1)OCCOc1ccccc1 | inactive: -3.23%
COc1ccccc1OP(C)(=O)Nc1ccc(Br)cc1 (centres undefined) | inactive: -1.18%
COc1ccc(OP(C)(=O)Nc2ccccn2)cc1 (centres undefined) | inactive: -2.89%
CN(C)CCOC(=O)C(O)(c1ccccc1)C1CCCC1 (centres undefined) | inactive: 6.24%
Cc1c(NP(C)(=O)Oc2ccc(C(C)C)cc2)c(=O)n(-c2ccccc2)n1C (centres undefined) | inactive: 1.33%
O=[N+]([O-])c1cc([N+](=O)[O-])c(Nc2ccccn2)c([N+](=O)[O-])c1 | inactive: -22.4%
CP(=O)(Nc1ccccn1)Oc1ccccc1 (centres undefined) | inactive: -0.145%
COc1ccccc1OP(C)(=O)Nc1ccc(C)cc1C (centres undefined) | inactive: 3.08%
CCc1ccc(OP(C)(=O)O)cc1 | inactive: -5.75%
CCN(CC)CC(O)COC(=O)C(O)(c1ccccc1)C1CCCCC1 (centres undefined) | inactive: -1.11%
COc1ccc(OP(C)(=O)Nc2ccc(Br)cc2)cc1 (centres undefined) | inactive: 1.18%
COc1ccccc1OP(C)(=O)Nc1c(C)n(C)n(-c2ccccc2)c1=O (centres undefined) | inactive: 1.57%
O=C(OCCCN1CCCC1)C(O)(c1ccccc1)C1CCCCC1 (centres undefined) | inactive: 1.42%
CP(=O)(Oc1ccccc1)N1CCOC1=O (centres undefined) | inactive: 0.188%
CCc1ccc(OP(C)(=O)Nc2cccnc2)cc1 (centres undefined) | inactive: 1.96%
COc1ccccc1OP(C)(=O)Nc1ccccc1Br (centres undefined) | inactive: -2.25%
CC(C)(C)c1ccc(OP(C)(=O)O)cc1 | inactive: -0.578%
CP(=O)(Nc1ccc(Cl)cc1)Oc1ccc(F)cc1 (centres undefined) | inactive: 1.04%
CN(C)C(=O)c1c([N+](=O)[O-])cc([N+](=O)[O-])cc1[N+](=O)[O-] | inactive: -23.7%

SMILES | inhibition
CCOC(=O)c1ccc(NP(C)(=O)Oc2ccc(Cl)cc2)cc1 (centres undefined) | inactive: 0.246%
CP(=O)(OC12CC3CC(CC(C3)C1)C2)OC12CC3CC(CC(C3)C1)C2 | inactive: 0.951%
COc1ccc(OP(C)(=O)Nc2cccc(Br)c2)cc1 (centres undefined) | inactive: -4.91%
CN(C)CCOC(=O)C(O)(c1ccccc1)C1CCCCC1 (centres undefined) | inactive: 1.53%
COc1ccc(NP(C)(=O)Oc2ccccc2OC)cc1 (centres undefined) | inactive: 3.21%
O=[N+]([O-])c1ccc(OP2(=O)COCCO2)cc1 (centres undefined) | inactive: -19.1%
Cc1cc(-c2cccc3ccccc23)c(C)cn1.O=[N+]([O-])c1cc([N+](=O)[O-])c(O)c([N+](=O)[O-])c1 | inactive: -23%
O=[N+]([O-])c1cc([N+](=O)[O-])c(NCC2CCS(=O)(=O)C2)c([N+](=O)[O-])c1 (centres undefined) | inactive: -19.9%
Cc1c(C(c2ccc3c(c2)OCO3)c2c(C)n(C)n(-c3ccccc3)c2=O)c(=O)n(-c2ccccc2)n1C.O=[N+]([O-])c1cc([N+](=O)[O-])c(O)c([N+](=O)[O-])c1 | inactive: -1.71%
CP(=O)(Nc1ccc(SC(F)(F)F)cc1)Oc1ccc(F)cc1 (centres undefined) | inactive: -3.48%
CCOP(C)(=S)SCC(=O)NC(C)(CC)C(=O)O (centres undefined) | inactive: -2.11%
CP(=O)(Nc1ccc2c(c1)OCCO2)Oc1ccccc1 (centres undefined) | inactive: 6.32%
Cc1ccccc1NP(C)(=O)Nc1ccccc1C | inactive: 1.78%
O=[N+]([O-])c1cc([N+](=O)[O-])c(C(F)(F)F)c([N+](=O)[O-])c1O | inactive: -16.8%
O=[N+]([O-])c1cc([N+](=O)[O-])c(Nc2ccc(Cl)cc2)c([N+](=O)[O-])c1 | inactive: -35%
CP(=O)(Nc1ccccc1F)Oc1ccccc1 (centres undefined) | inactive: -3.24%
CC(C)c1ccc(OP(C)(=O)Nc2ccc(SC(F)(F)F)cc2)cc1 (centres undefined) | inactive: 2.65%
O=C(OC1CN2CCC1CC2)c1ccc([N+](=O)[O-])cc1 (centres undefined) | inactive: -46.9%
O=C(OCCN1CCN(CCOCc2ccccc2)CC1)C(O)(c1ccccc1)c1ccccc1 | inactive: -3.21%
COc1ccc2c(c1O)-c1c(O)c(OC)cc3c1[C@H](C2)[N+](C)(C)CC3.O=[N+]([O-])c1cc([N+](=O)[O-])c([O-])c([N+](=O)[O-])c1[O-] | inactive: -14.3%
CCN(CC)CCCNc1ccccc1[N+](=O)[O-].O=[N+]([O-])c1cc([N+](=O)[O-])c(O)c([N+](=O)[O-])c1 | inactive: -38.9%
CCOC(=O)c1ccc(NP(C)(=O)Oc2ccc(F)cc2)cc1 (centres undefined) | inactive: -0.142%
COc1ccc(OP(C)(=O)Nc2ccc(SC(F)(F)F)cc2)cc1 (centres undefined) | inactive: -3.81%
Cc1c([N+](=O)[O-])cc([N+](=O)[O-])c(Br)c1[N+](=O)[O-] | inactive: -19.4%
CCN(CC)CCCOC(=O)C(O)(c1ccccc1)C1CCCCC1 (centres undefined) | inactive: 3.02%

SMILES | inhibition
CP(=O)(Nc1ccccc1)Oc1ccc(F)cc1 (centres undefined) | inactive: -0.749%
O=[N+]([O-])c1cc([N+](=O)[O-])c(OC2CCCCC2O)c([N+](=O)[O-])c1 (centres undefined) | inactive: -20.3%
CCCCCOc1ccc(NP(C)(=O)Oc2ccc(Cl)cc2Cl)cc1 (centres undefined) | inactive: 5.68%
O=C(O)c1cccc(Nc2c([N+](=O)[O-])cc([N+](=O)[O-])cc2[N+](=O)[O-])c1 | inactive: -24.6%
CC1=NCCc2c1[nH]c1ccccc21.O=[N+]([O-])c1cc([N+](=O)[O-])c(O)c([N+](=O)[O-])c1 | inactive: -20.6%
COc1ccccc1OP(C)(=O)Nc1cccc(Br)c1 (centres undefined) | inactive: 2.48%
CCOC(=O)c1ccc(NP(C)(=O)Oc2cc(C)cc(C)c2)cc1 (centres undefined) | inactive: 2.08%
Cc1cc(C)cc(OP(C)(=O)Nc2ccc(C)cc2C)c1 (centres undefined) | inactive: -1.73%
Cc1ccc(C)c(NP(C)(=O)Oc2ccccc2)c1 (centres undefined) | inactive: -3.67%
Cc1cc(C)cc(OP(C)(=O)Nc2ccccn2)c1 (centres undefined) | inactive: -1.23%
CP(=O)(Nc1cccc(Br)c1)Oc1ccccc1 (centres undefined) | inactive: 32.8%
O=[N+]([O-])c1cc([N+](=O)[O-])c(-n2nnc3ccccc32)c([N+](=O)[O-])c1 | inactive: -21.8%
CN(Cc1cccnc1)C(=O)COc1ccc(Cl)c(Cl)c1.O=[N+]([O-])c1cc([N+](=O)[O-])c(O)c([N+](=O)[O-])c1 | inactive: -17.9%
O=[N+]([O-])c1cc([N+](=O)[O-])c(-c2cnn(-c3ccccc3)c2)c([N+](=O)[O-])c1 | inactive: -29.1%
Cc1nc2ccc3ccccc3c2s1.O=[N+]([O-])c1cc([N+](=O)[O-])c(O)c([N+](=O)[O-])c1 | inactive: -20.4%
CC1=C2N=C(C=C3N=C(C(C)=C4[N-][C@@](C)([C@@H]5N=C1[C@](C)(CCC(=O)NC[C@@H](C)OP(=O)([O-])O[C@H]1[C@@H](O)[C@@H](n6cnc7cc(C)c(C)cc76)O[C@@H]1CO)[C@H]5CC(N)=O)[C@@](C)(CC(N)=O)[C@@H]4CCC(N)=O)[C@@](C)(CC(N)=O)[C@@H]3CCC(N)=O)C(C)(C)[C@@H]2CCC(N)=O.[C-]#N.[Co+3] | inactive: 3.55%
O=[N+]([O-])c1cc([N+](=O)[O-])c(Nc2nnnn2CCO)c([N+](=O)[O-])c1 | inactive: -35.3%
CCOC(=O)C(CC)C1=NC(C)(C)Cc2ccccc21.O=[N+]([O-])c1cc([N+](=O)[O-])c(O)c([N+](=O)[O-])c1 (centres undefined) | inactive: -26.2%
COc1ccccc1OP(C)(=O)Nc1c(C)cccc1C (centres undefined) | inactive: -1.84%
CN1CCCCC1COC(=O)C1(O)c2ccccc2CCc2ccccc21 (centres undefined) | inactive: -0.899%
COc1ccc(-c2ccccn2)cc1.O=[N+]([O-])c1cc([N+](=O)[O-])c(O)c([N+](=O)[O-])c1 | inactive: -13.4%
CCCOc1ccc(NP(C)(=O)Oc2ccc(Cl)cc2)cc1 (centres undefined) | inactive: 1.74%
CP(=O)(Nc1ccc(SC(F)(F)F)cc1)Oc1ccccc1 (centres undefined) | inactive: 2.22%
CP(=S)(Nn1cnnc1)Oc1ccccc1 (centres undefined) | inactive: -0.914%
CP(=O)(Nc1ccccc1Br)Oc1ccccc1 (centres undefined) | inactive: 2.31%

SMILES | inhibition
COc1ccccc1OP(C)(=O)Nc1ccccc1 (centres undefined) | inactive: -14.8%
Cc1ccc(Nc2c([N+](=O)[O-])cc([N+](=O)[O-])cc2[N+](=O)[O-])cc1 | inactive: -27.4%
Cc1cccc(C)c1OP(C)(=O)Nc1ccc(SC(F)(F)F)cc1 (centres undefined) | inactive: -0.542%
CP(=O)(Nc1ccc(SC(F)(F)F)cc1)Oc1ccc(Cl)cc1 (centres undefined) | inactive: 8.82%
CP(=O)(Oc1ccccc1)OC(c1ccccc1)C(F)(F)F (centres undefined) | inactive: -1.77%
CP(=O)(NC(=O)Nc1ccccc1)Oc1ccccc1 (centres undefined) | inactive: -2.42%
CCc1ccc(OP(C)(=O)N2CCN(c3ccc([N+](=O)[O-])cc3)CC2)cc1 (centres undefined) | inactive: -28.9%
Cc1cc(C)cc(OP(C)(=O)Nc2ccc(SC(F)(F)F)cc2)c1 (centres undefined) | inactive: -2.6%
CCOC(=O)c1ccc(NP(C)(=O)Oc2ccc(OC)cc2)cc1 (centres undefined) | inactive: 1.71%
O=[N+]([O-])c1cc([N+](=O)[O-])c(O)c([N+](=O)[O-])c1.c1ccc(Oc2ccncc2)cc1 | inactive: -26.7%
CCOP(C)(=S)SCC(=O)NC(C)C(=O)O (centres undefined) | inactive: 1.36%
CP(=O)(Nc1ccccn1)Oc1ccc(Cl)cc1 (centres undefined) | inactive: 1.26%
CCN(CC)CCCOC(=O)C(O)(c1ccccc1)c1ccccc1 | inactive: 1.14%
COc1ccccc1-c1ccccn1.O=[N+]([O-])c1cc([N+](=O)[O-])c(O)c([N+](=O)[O-])c1 | inactive: -20.2%
O=[N+]([O-])c1cc([N+](=O)[O-])c(Nc2cccnc2)c([N+](=O)[O-])c1 | inactive: -37.2%
O=[N+]([O-])c1ccc2c(c1)C=Nc1ccccc1O2 | inactive: -21.9%
CC(C)(C)c1ccc(OP(C)(=O)Nc2ccc(SC(F)(F)F)cc2)cc1 (centres undefined) | inactive: 0.458%
Cc1cccc(C)c1OP(C)(N)=O (centres undefined) | inactive: -2.76%
COc1ccccc1OP(C)(=O)Nc1ccc(C)cc1 (centres undefined) | inactive: -2.59%
Cc1ccc(NP(C)(=O)Oc2ccccc2)c(C)c1 (centres undefined) | inactive: -0.763%
CCOC(=O)c1ccc(NP(C)(=O)Oc2ccccc2)cc1 (centres undefined) | inactive: -0.519%
Cc1cc(C)cc(OP(C)(N)=O)c1 (centres undefined) | inactive: -1.45%
COc1ccccc1OP(C)(=O)Nc1cc(Cl)ccc1C (centres undefined) | inactive: -1.57%
COc1ccc(OP(C)(=O)Nc2cccc(F)c2)cc1 (centres undefined) | inactive: -0.598%
